Measurements published in patent US12559781B2, “Methods of producing polypeptides using a cell line resistant to apoptosis” (Genentech, Inc., priority 2018, dated 2026).

Tested on: HEK293 DKO cells
Settings: 1 μM staurosporine; shake flask seed train cultures seeded at 0.8×10^6 cells/mL; HEK293 DKO (Bax/Bak knock-out) compared with parental HEK293; FIG. 1A

CN[C@@H]1C[C@H]2O[C@@](C)([C@@H]1OC)n1c3ccccc3c3c4c(c5c6ccccc6n2c5c31)C(=O)NC4 [staurosporine]
viability upon staurosporine addition: HEK293 DKO cells maintained higher viability compared to HEK293 cells
